Measured values: patent US20200405739A1, “MTOR INHIBITOR, PHARMACEUTICAL COMPOSITION AND USE THEREOF” (SHENYANG FUYANG PHARMACEUTICAL TECHNOLOGY CO., LTD., priority 2018, published 2020)

Details: in vivo

oral absolute bioavailability: 91.6%
Substance: Carrimycin
